Source: ChEMBL document CHEMBL3638407, “Serine/threonine kinase inhibitors” (2014)

Protein sequences, listed by entry. Tags and fused reporters are not part of them.
UniProt P28482, whole entry: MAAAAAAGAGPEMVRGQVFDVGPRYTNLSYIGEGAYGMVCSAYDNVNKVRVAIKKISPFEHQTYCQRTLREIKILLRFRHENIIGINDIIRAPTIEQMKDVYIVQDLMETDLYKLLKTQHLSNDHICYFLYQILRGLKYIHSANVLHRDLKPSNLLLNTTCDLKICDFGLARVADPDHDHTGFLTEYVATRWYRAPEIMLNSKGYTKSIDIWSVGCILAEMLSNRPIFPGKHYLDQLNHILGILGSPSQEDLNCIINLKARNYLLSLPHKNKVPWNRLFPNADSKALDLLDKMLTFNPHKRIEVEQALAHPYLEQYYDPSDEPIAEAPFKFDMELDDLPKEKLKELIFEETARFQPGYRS

Biological target: Mitogen-activated protein kinase 1 (Homo sapiens, UniProt P28482)

IC50: 6.3 nM
SMILES: O=c1cc(-c2ccnc(N[C@@H]3C[C@@H]4C[C@H]3CO4)n2)ccn1[C@H](CO)c1ccc(Cl)c(F)c1
